Like-named read-outs stand apart in the source and are kept apart here.
System: MSSA 8238
Conditions: Sc., gentamycin 6 mg/kg or amoxicillin 30 mg/kg, cineol 30 mg/kg where present

gentamycin
c/MIC (plasma efficient concentration/MIC ratio) (0.083 h post-injection): 10 | c/MIC (plasma efficient concentration/MIC ratio) (1 h post-injection): 3 | c/MIC (plasma efficient concentration/MIC ratio) (2 h post-injection): 4 | c/MIC (plasma efficient concentration/MIC ratio) (5 h post-injection): 0.2 | c/MIC (plasma efficient concentration/MIC ratio) (8 h post-injection): 0.2 | c/MIC (plasma efficient concentration/MIC ratio) (24 h post-injection): 0.155

— US10668043B2, “Potentiated antimicrobial agents” (priority 2014, dated 2020)
